Legend:
[1] = molecular target: Sigma non-opioid intracellular receptor 1 (Homo sapiens) (UniProt Q99720); assay: In vitro inhibition for opioid binding site in guinea pig brain membrane using [3H]DADLE as radioligand; conditions: Cavia porcellus
[2] = molecular target: Kappa-type opioid receptor (Cavia porcellus) (UniProt P41144); assay: In vitro inhibition for opioid binding site in guinea pig brain membrane using [3H]U-69593 as radioligand
[3] = molecular target: Mu-type opioid receptor (Cavia porcellus) (UniProt P97266); assay: In vitro inhibition for Mu opioid receptor binding site in guinea pig brain membrane using [3H]-FOXY as radioligand
[4] = molecular target: Kappa-type opioid receptor (Cavia porcellus) (UniProt P41144); assay: In vitro inhibition for Opioid receptor kappa 1 binding site in guinea pig brain membrane using [3H]bremazocine as radioligand
[5] = molecular target: Mu-type opioid receptor (Cavia porcellus) (UniProt P97266); assay: Percent inhibition of binding of selective kappa agonist to that of control in guinea pig brain membrane using [3H]FOXY as radioligand; design: scale not given: the % may be the effect or the level left
[6] = molecular target: Sigma non-opioid intracellular receptor 1 (Homo sapiens) (UniProt Q99720); assay: Percent inhibition of binding of selective kappa agonist to that of control in guinea pig brain membrane using [3H]DADLE as radioligand; design: scale not given: the % may be the effect or the level left; conditions: Cavia porcellus
[7] = molecular target: Kappa-type opioid receptor (Cavia porcellus) (UniProt P41144); assay: Percent inhibition of binding of selective kappa agonist to that of control in guinea pig brain membrane using [3H]U-69593 as radioligand; design: scale not given: the % may be the effect or the level left
[8] = molecular target: Kappa-type opioid receptor (Cavia porcellus) (UniProt P41144); assay: Percent inhibition of binding of selective kappa agonist to that of control in guinea pig brain membrane using [3H]bremazocine as radioligand; design: scale not given: the % may be the effect or the level left
[9] = molecular target: Mu-type opioid receptor (Cavia porcellus) (UniProt P97266); assay: In vitro inhibition for opioid binding site in guinea pig brain membrane using [3H]FOXY as radioligand
[10] = molecular target: Kappa-type opioid receptor (Cavia porcellus) (UniProt P41144); assay: In vitro inhibition for Opioid receptor kappa 1 binding site in guinea pig brain membrane using [3H]U-69593 as radioligand

Protein sequences, listed by entry. Tags and fused reporters are not part of them. Lines headed by an entry give the natural chain unless they say otherwise; changes in a name come on top.
UniProt Q99720, whole entry, looked up: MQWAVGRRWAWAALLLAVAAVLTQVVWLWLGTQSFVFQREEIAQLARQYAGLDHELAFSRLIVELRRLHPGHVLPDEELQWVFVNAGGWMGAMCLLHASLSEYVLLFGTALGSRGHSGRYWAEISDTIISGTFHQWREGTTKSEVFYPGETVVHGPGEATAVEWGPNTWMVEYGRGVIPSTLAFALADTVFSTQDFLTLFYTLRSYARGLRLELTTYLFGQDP
UniProt P41144: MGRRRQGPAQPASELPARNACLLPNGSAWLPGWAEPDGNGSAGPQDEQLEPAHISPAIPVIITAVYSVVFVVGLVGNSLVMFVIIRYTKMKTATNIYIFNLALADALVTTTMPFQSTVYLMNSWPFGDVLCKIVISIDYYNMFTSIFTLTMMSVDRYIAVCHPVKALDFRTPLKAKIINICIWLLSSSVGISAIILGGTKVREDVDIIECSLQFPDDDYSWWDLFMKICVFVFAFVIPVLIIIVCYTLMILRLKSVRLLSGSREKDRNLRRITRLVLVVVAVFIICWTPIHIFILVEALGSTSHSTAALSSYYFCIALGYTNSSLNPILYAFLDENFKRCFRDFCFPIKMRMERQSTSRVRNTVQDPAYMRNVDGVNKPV
UniProt P97266, whole entry, looked up: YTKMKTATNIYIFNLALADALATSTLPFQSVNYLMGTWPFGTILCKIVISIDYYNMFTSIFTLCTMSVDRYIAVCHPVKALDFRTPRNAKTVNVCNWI

Structure (SMILES) | Specific binding [1] [fM/mg] | Specific binding [2] [fM/mg] | Specific binding [3] [fM/mg] | Specific binding [4] [fM/mg] | Activity [5] [%] | Activity [6] [%] | Activity [7] [%] | Activity [8] [%] | Specific binding [9] [fM/mg] | Specific binding [10] [fM/mg]
CN(C(=O)Cc1ccccc1N=C=S)[C@@H]1CCCC[C@H]1N1CCCC1 | 24.4 | 14.5 | 96.8 | 49.9 | 110 | 89 | 95.9 | 69 | – | –
CN(C(=O)Cc1ccccc1N=C=S)[C@H]1CCCC[C@@H]1N1CCCC1 | 41.5 | 1.7 | – | – | 119 | 100 | 11.2 | 97.6 | 86 | 56.4

Reference: ChEMBL document CHEMBL1124379, “Selective and enantiospecific acylation of kappa opioid receptors by (1S,2S)-trans-2-isothiocyanato-N-methyl-N-[2-(1-pyrrolidinyl) cyclohexy l] benzeneacetamide. Demonstration of kappa receptor heterogeneity” (1989)
